# The list shows a part of the results, in another mix than the full data. Some of these compounds have results that are not shown, active ones among them. Calls of active or inactive are those of the source.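 The calls were made as follows: active = inhibition at least 30% at 10 µM, raw YFP signal under a set limit, fluorescence ratio 0.5 to 1.5; inactive = the rest.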
# The chains behind the UniProt entries cited, without tags or fusion partners. Residues count along the entry.
# UniProt Q9P0U3, 419-644 limits assumed: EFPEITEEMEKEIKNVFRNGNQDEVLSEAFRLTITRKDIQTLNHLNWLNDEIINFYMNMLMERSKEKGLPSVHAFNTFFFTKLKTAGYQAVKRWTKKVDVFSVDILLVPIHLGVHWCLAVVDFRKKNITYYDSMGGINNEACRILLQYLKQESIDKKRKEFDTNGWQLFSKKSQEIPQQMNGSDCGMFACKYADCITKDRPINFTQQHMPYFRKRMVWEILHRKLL
# Target: Sentrin-specific protease 1 (Homo sapiens) (UniProt Q9P0U3)
# Experiment: blockers of SENP1 SUMO protease activity – biochemical, FRET, uHTS, primary screen (AID 624204);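 also: 0% = enzyme with DMSO and 100% = no enzyme wells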
# Settings: recombinant SENP1 catalytic domain, CyPet-SUMO1-YPet FRET cleavage; at 10 µM; hits give high values
row,SMILES,inhibition
1,O=C(NCC1(N2CCCCC2)CCCCC1)c1cccc(Cl)c1,inactive: -0.981%
2,COc1cccc(C(=O)NCC2(N3CCCCC3)CCCCC2)c1,inactive: 1.8%
3,COc1ccc(Cl)cc1C(=O)NCC1(N(C)C)CCCCC1,inactive: 1.72%
4,COc1cc(C(=O)NCC2(N(C)C)CCCCC2)c([N+](=O)[O-])cc1OC,inactive: -1.61%
5,CN(C)C1(CNC(=O)c2ccc(Br)cc2)CCCCC1,inactive: 0.441%
6,CN(C)c1cccc(C(=O)NCC2(N(C)C)CCCCC2)c1,inactive: 0.763%
7,CC(C)Oc1ccc(C(=O)NCC2(N(C)C)CCCCC2)cc1,inactive: 0.686%
8,O=C(OCCN1CCCC1)C(O)(c1ccccc1)c1ccccc1,inactive: -3.18%
9,COc1ccc(Br)c(C(=O)NCC2(N3CCCCC3)CCCCC2)c1,inactive: -28.4%
10,C=C(C)C#CC(O)(C(=O)OC1CCN(C)CC1)c1ccccc1 (stereo unspecified),inactive: 0.642%
11,O=C(OC1CN2CCC1CC2)C(CO)(c1ccccc1)c1ccccc1 (stereo unspecified),inactive: 0.828%
12,Cc1ccc(C(=O)NCC2(N3CCCCC3)CCCCC2)cc1,inactive: -21.8%
13,CC(C)N1C(=O)CC2(CCN(CCOC(=O)C(O)(c3ccccc3)c3ccccc3)CC2)C1=O,inactive: 1.01%
14,CCN(CC)CC(C)C(C)OC(=O)C(O)(c1ccccc1)c1ccccc1 (stereo unspecified),inactive: 1.45%
15,COc1cc(SC)ccc1C(=O)NCC1(N(C)C)CCCCC1,inactive: 1.89%
16,CN1[C@@H]2CC[C@H]1CC(OC(=O)C(O)(c1ccccc1)c1ccccc1)C2 (stereo partly specified),inactive: 0.518%
17,O=C(NCC1(N2CCCCC2)CCCCC1)c1cc([N+](=O)[O-])ccc1Cl,inactive: 11.8%
18,CCN1CCCC(OC(=O)C2(O)c3ccccc3C=Cc3ccccc32)C1 (stereo unspecified),inactive: 2%
19,Cc1cc(C(=O)NCC2(N3CCCCC3)CCCCC2)ccc1[N+](=O)[O-],inactive: -0.452%
20,O=C(NCC1(N2CCCCC2)CCCCC1)c1cccc(Br)c1,inactive: 1.31%
21,COc1ccc(C(=O)NCC2(N(C)C)CCCCC2)cc1,inactive: 1.64%
22,C=CCN1CCN(CCOC(=O)C(O)(c2ccccc2)c2ccccc2)CC1,inactive: -0.266%
23,O=C(NCC1(N2CCCCC2)CCCCC1)c1cc(F)c(F)cc1Cl,inactive: -1.19%
24,Cc1ccccc1C(=O)NCC1(N2CCCCC2)CCCCC1,inactive: -0.753%
25,CN(C)c1ccc(C(=O)NCC2(N(C)C)CCCCC2)cc1,inactive: 1.76%
26,CN(C)C1CCCC1OC(=O)C(O)(c1ccccc1)c1ccccc1 (stereo unspecified),inactive: 2.37%
